Chains of the proteins cited; added tags and fusions are not shown.
UniProt P23975, whole entry: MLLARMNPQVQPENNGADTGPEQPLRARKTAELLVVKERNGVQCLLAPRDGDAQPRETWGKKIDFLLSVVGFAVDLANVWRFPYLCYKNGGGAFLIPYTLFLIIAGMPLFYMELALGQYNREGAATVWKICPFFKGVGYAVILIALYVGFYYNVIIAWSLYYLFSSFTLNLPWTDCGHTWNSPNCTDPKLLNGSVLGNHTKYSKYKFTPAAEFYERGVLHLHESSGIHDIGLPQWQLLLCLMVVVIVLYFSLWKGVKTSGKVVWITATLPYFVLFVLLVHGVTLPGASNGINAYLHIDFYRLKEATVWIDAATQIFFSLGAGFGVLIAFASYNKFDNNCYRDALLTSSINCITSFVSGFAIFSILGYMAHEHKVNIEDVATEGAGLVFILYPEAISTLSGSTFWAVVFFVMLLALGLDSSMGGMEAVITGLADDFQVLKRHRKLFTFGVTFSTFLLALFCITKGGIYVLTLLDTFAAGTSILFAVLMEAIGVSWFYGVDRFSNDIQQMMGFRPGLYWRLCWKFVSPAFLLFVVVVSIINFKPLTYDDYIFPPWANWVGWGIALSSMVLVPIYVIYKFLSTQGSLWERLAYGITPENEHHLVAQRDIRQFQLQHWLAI

According to PMC4035770 (2014):

Target: Norepinephrine transporter (NET) (Homo sapiens, UniProt P23975)
Assay: Pharmacological screen, norepinephrine transporter
Assay type: binding

In the case of `CC(NC(C)(C)C)C(=O)c1cccc(Cl)c1` (racemic) [Bupropion, Rac-bupropion hydrochloride, reference compound], the IC50 is reported as 19.9 µM and the Ki is reported as 19.8 µM.

Where a name gives a salt, the structure may show the parent alone.
